Reference: patent US12172993B2 (priority 2018, dated 2024)
Like-named read-outs stand apart in the source and are kept apart here.

Tests used:
[1] = human liver microsomal stability
[2] = mouse liver microsomal stability
[3] = male CD1 mice

Cc1nc(Nc2ncc(C(=O)Nc3c(C)csc3Cl)s2)cc(N2CCN(CCO)CC2)n1 [Compound C7, N-(2-chloro-4-methylthiophen-3-yl)-2-((6-(4-(2-hydroxyethyl)piperazin-1-yl)-2-methylpyrimidin-4-yl)amino)thiazole-5-carboxamide]
Half-life [1]: 5 min | Half-life [2]: 12 min | t1/2 ([3]; 1 mg/kg iv): 72 min | t1/2 ([3]; 30 mg/kg po): 198 min
